{"sequences": {"note": "By UniProt entry, the sequences of proteins in these tests, tags left out. Residues count along the entry.", "UniProt P28907, 43-300 N100D/N164A/N209D/N219D limits assumed": "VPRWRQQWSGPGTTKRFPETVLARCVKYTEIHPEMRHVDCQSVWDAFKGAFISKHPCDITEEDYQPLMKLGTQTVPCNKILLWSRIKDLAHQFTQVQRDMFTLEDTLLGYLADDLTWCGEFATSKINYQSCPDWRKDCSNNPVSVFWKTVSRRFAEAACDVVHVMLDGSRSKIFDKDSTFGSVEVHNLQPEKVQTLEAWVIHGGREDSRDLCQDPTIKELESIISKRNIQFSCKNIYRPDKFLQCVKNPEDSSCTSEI"}, "source": "paper PMC4207131", "about": "“Cyclic Adenosine 5′-Diphosphate Ribose Analogs without a “Southern” Ribose Inhibit ADP-ribosyl Cyclase–Hydrolase CD38” (Journal of Medicinal Chemistry, 2014)", "target": "CD38 catalytic domain (shCD38) (Homo sapiens, UniProt P28907, N100D/N164A/N209D/N219D)", "assay": "Inhibition of shCD38-mediated cADPR hydrolysis (fluorimetric cycling assay)", "format": "biochemical", "design": "incubating 1 μM cADPR with 1 μg/mL CD38 catalytic domain for 10 min; made in house", "conditions": "1 μM cADPR, 1 μg/mL CD38 catalytic domain, 10 min, 20–24 °C, 25 mM sodium acetate pH 4.5", "method": "The inhibition of cADPR hydrolysis by various concentrations of analog (0–1 mM) was determined by incubating 1 μM cADPR with 1 μg/mL CD38 catalytic domain for 10 min at 20–24 °C in 25 mM sodium acetate, pH 4.5. The reaction was stopped by the addition of 150 mM HCl. The precipitated protein was filtered, and the pH was neutralized with Tris base. After the mixture was diluted 20-fold, the concentration of the unhydrolyzed cADPR present in the diluted reaction mixture was assayed by the fluorimetric cycling assay as described previously.[52]", "data": [{"compound": "O=c1c2ncn3c2ncn1[C@@H]1O[C@H](COP(=O)(O)OP(=O)(O)OCCCC3)[C@@H](O)[C@H]1O", "note": "[compound 4, N1-Cyclic Hypoxanthine-N9-hydroxybutyl Diphosphate Ribose]", "values": [{"measurement": "IC50", "value": 33, "unit": "µM"}]}]}
